Results taken from patent publication US20060168675A1, “Novel polypetide having function of 7-keto-8-aminopelargonic acid synthase of plant and method for inducing growth inhibition and lethality by suppressing expression of the polypeptide” (GENOMINE, INC, priority 2002, published 2006).

Tested on: transgenic Arabidopsis thaliana comprising antisense construct of AtKAPAS gene
Settings: pots filled with sands containing 1 mM biotin; Basta treated 5 times
Description: The pots were treated with Basta 5 times, and then investigated for the growth of Arabidopsis thaliana in every pot.

O=C(O)CCCC[C@@H]1SC[C@@H]2NC(=O)N[C@@H]21 [biotin]
Phenotype of grown plants: not much different from that of wild type Arabidopsis thaliana
